{
  "source": "paper PMC10571874",
  "key": {"[1]": {"assay": "qPCR of CD274 and FGF8, PANC1 and MIA PaCa2", "conditions": "glycan lost; control: WT-p65 overexpressing cells"}, "[2]": {"assay": "κB (ELAM) luciferase reporter, PANC1 and MIA PaCa2", "conditions": "glycan lost; control: WT-p65 overexpressing cells"}, "[3]": {"assay": "anti-FLAG immunofluorescence with DAPI, IL-1β 1 h", "conditions": "glycan lost; control: WT-p65 overexpressing cells"}, "[4]": {"assay": "RNA-seq, PANC1 stable cells", "conditions": "glycan lost; control: WT-p65 overexpressing PANC1 cells"}, "[5]": {"assay": "Western blot time course, PANC1 and MIA PaCa2", "conditions": "glycan lost; control: WT-p65 overexpressing cells"}, "[6]": {"assay": "anti-pS536 Western blot after IL-1β", "conditions": "glycan lost; control: WT-p65 overexpressing cells"}},
  "data": [
    {"protein": "p65 subunit of NF-κB (RelA/p65): S550A/S551A (protein) parent chain: MDELFPLIFPAEPAQASGPYVEIIEQPKQRGMRFRYKCEGRSAGSIPGERSTDTTKTHPTIKINGYTGPGTVRISLVTKDPPHRPHPHELVGKDCRDGFYEAELCPDRCIHSFQNLGIQCVKKRDLEQAISQRIQTNNNPFQVPIEEQRGDYDLNAVRLCFQVTVRDPSGRPLRLPPVLSHPIFDNRAPNTAELKICRVNRNSGSCLGGDEIFLLCDKVQKEDIEVYFTGPGWEARGSFSQADVHRQVAIVFRTPPYADPSLQAPVRVSMQLRRPSDRELSEPMEFQYLPDTDDRHRIEEKRKRTYETFKSIMKKSPFSGPTDPRPPPRRIAVPSRSSASVPKPAPQPYPFTSSLSTINYDEFPTMVFPSGQISQASALAPAPPQVLPQAPAPAPAPAMVSALAQAPAPVPVLAPGPPQAVAPPAPKPTQAGEGTLSEALLQLQFDDEDLGALLGNSTDPAVFTDLASVDNSEFQQLLNQGIPVAPHTTEPMLMEYPEAITRLVTGAQRPPDPAPAPLGAPGLPNGLLSGDEDFSSIADMDFSALLSQISS", "values": [
      {"measurement": "other: NF-κB target gene expression", "setting": "[1]", "value": "decreases"},
      {"measurement": "other: NF-κB transcriptional activity", "setting": "[2]", "value": "decreases"},
      {"measurement": "localisation_or_trafficking", "setting": "[3]", "value": "decreases"},
      {"measurement": "other: NF-κB target gene expression, other: % of 986 WT-p65-induced genes downregulated", "setting": "[4]", "value": "decreases"},
      {"measurement": "other: IL-1β-induced IκBα degradation", "setting": "[5]", "value": "no change"},
      {"measurement": "other: p65 S536 phosphorylation", "setting": "[6]", "value": "decreases"}
    ]},
    {"protein": "p65 subunit of NF-κB (RelA/p65): S551A (protein) parent chain: MDELFPLIFPAEPAQASGPYVEIIEQPKQRGMRFRYKCEGRSAGSIPGERSTDTTKTHPTIKINGYTGPGTVRISLVTKDPPHRPHPHELVGKDCRDGFYEAELCPDRCIHSFQNLGIQCVKKRDLEQAISQRIQTNNNPFQVPIEEQRGDYDLNAVRLCFQVTVRDPSGRPLRLPPVLSHPIFDNRAPNTAELKICRVNRNSGSCLGGDEIFLLCDKVQKEDIEVYFTGPGWEARGSFSQADVHRQVAIVFRTPPYADPSLQAPVRVSMQLRRPSDRELSEPMEFQYLPDTDDRHRIEEKRKRTYETFKSIMKKSPFSGPTDPRPPPRRIAVPSRSSASVPKPAPQPYPFTSSLSTINYDEFPTMVFPSGQISQASALAPAPPQVLPQAPAPAPAPAMVSALAQAPAPVPVLAPGPPQAVAPPAPKPTQAGEGTLSEALLQLQFDDEDLGALLGNSTDPAVFTDLASVDNSEFQQLLNQGIPVAPHTTEPMLMEYPEAITRLVTGAQRPPDPAPAPLGAPGLPNGLLSGDEDFSSIADMDFSALLSQISS", "values": [
      {"measurement": "other: NF-κB target gene expression", "setting": "[1]", "value": "decreases"},
      {"measurement": "other: NF-κB transcriptional activity", "setting": "[2]", "value": "decreases"},
      {"measurement": "localisation_or_trafficking", "setting": "[3]", "value": "decreases"},
      {"measurement": "other: NF-κB target gene expression, other: % of 986 WT-p65-induced genes downregulated", "setting": "[4]", "value": "decreases"},
      {"measurement": "other: IL-1β-induced IκBα degradation", "setting": "[5]", "value": "no change"},
      {"measurement": "other: p65 S536 phosphorylation", "setting": "[6]", "value": "decreases"}
    ]},
    {"protein": "p65 subunit of NF-κB (RelA/p65): S550A (protein) parent chain: MDELFPLIFPAEPAQASGPYVEIIEQPKQRGMRFRYKCEGRSAGSIPGERSTDTTKTHPTIKINGYTGPGTVRISLVTKDPPHRPHPHELVGKDCRDGFYEAELCPDRCIHSFQNLGIQCVKKRDLEQAISQRIQTNNNPFQVPIEEQRGDYDLNAVRLCFQVTVRDPSGRPLRLPPVLSHPIFDNRAPNTAELKICRVNRNSGSCLGGDEIFLLCDKVQKEDIEVYFTGPGWEARGSFSQADVHRQVAIVFRTPPYADPSLQAPVRVSMQLRRPSDRELSEPMEFQYLPDTDDRHRIEEKRKRTYETFKSIMKKSPFSGPTDPRPPPRRIAVPSRSSASVPKPAPQPYPFTSSLSTINYDEFPTMVFPSGQISQASALAPAPPQVLPQAPAPAPAPAMVSALAQAPAPVPVLAPGPPQAVAPPAPKPTQAGEGTLSEALLQLQFDDEDLGALLGNSTDPAVFTDLASVDNSEFQQLLNQGIPVAPHTTEPMLMEYPEAITRLVTGAQRPPDPAPAPLGAPGLPNGLLSGDEDFSSIADMDFSALLSQISS", "values": [
      {"measurement": "other: NF-κB target gene expression", "setting": "[1]", "value": "decreases"},
      {"measurement": "other: NF-κB transcriptional activity", "setting": "[2]", "value": "decreases"},
      {"measurement": "localisation_or_trafficking", "setting": "[3]", "value": "decreases"},
      {"measurement": "other: NF-κB target gene expression, other: % of 986 WT-p65-induced genes downregulated", "setting": "[4]", "value": "decreases"},
      {"measurement": "other: IL-1β-induced IκBα degradation", "setting": "[5]", "value": "no change"},
      {"measurement": "other: p65 S536 phosphorylation", "setting": "[6]", "value": "decreases"}
    ]}
  ]
}
